{"source": "patent US5780605A", "about": "“6,9-bridged erythromycin derivatives” (Abbott Laboratories, priority 1997, dated 1998)", "tested_on": "Streptococcus Pheumoniae 5979", "test": "in vitro antibacterial activity (MIC), BHI agar dilution", "type": "cell-based", "details": "35-37° C., 20 to 24 hours", "method": "Representative compounds of the present invention were assayed in vitro for antibacterial activity as follows: Twelve petri dishes containing successive aqueous dilutions of the test compound mixed with 10 mL of sterilized Brain Heart Infusion (BHI) agar (Difco 0418-01-5) were prepared. Each plate was inoculated with 1:100 (or 1:10 for slow-growing strains, such as Micrococcus and Streptococcus) dilutions of up to 32 different microorganisms, using a Steers replicator block. The inoculated plates were incubated at 35°-37° C. for 20 to 24 hours. In addition, a control plate, using BHI agar containing no test compound, was prepared and incubated at the beginning and end of each test.\nAn additional plate containing a compound having known susceptibility patterns for the organisms being tested and belonging to the same antibiotic class as the test compound was also prepared and incubated as a further control, as well as to provide test-to-test comparability. Erythromycin A was used for this purpose.\nAfter incubation, each plate was visually inspected. The minimum inhibitory concentration (MIC) was defined as the lowest concentration of drug yielding no growth, a slight haze, or sparsely isolated colonies on the inoculum spot as compared to the growth control.", "data": [{"smiles": "CC[C@H]1OC(=O)[C@H](C)[C@@H](O[C@H]2C[C@@](C)(OC)[C@@H](O)[C@H](C)O2)[C@H](C)[C@@H](O[C@@H]2O[C@H](C)C[C@H](N(C)C)[C@H]2O)[C@](C)(O)C[C@@H](C)C(=O)[C@H](C)[C@@H](O)[C@]1(C)O", "note": "[Ery. A, Erythromycin A, reference compound]", "values": [{"measurement": "MIC (minimum inhibitory concentration)", "result": "> 128"}]}]}
